Laboratory results published in ChEMBL document CHEMBL1126282, “Synthesis and conformational properties of the lanthionine-bridged opioid peptide [D-AlaL2,AlaL5]enkephalin as determined by NMR and computer simulations” (J Med Chem, 1992).

What was measured:
Cavia porcellus = species on record: Cavia porcellus; experiment: Potency to inhibit electrically induced contraction of guinea pig ileum(GPI) relative to [Leu5]-enkephalin.
Mus musculus = species on record: Mus musculus; experiment: Potency to inhibit electrically induced contraction of mouse vas deferens(MVD) relative to [Leu5]-enkephalin.

CC(C)C[C@H](NC(=O)[C@H](Cc1ccccc1)NC(=O)CNC(=O)CNC(=O)[C@@H](N)Cc1ccc(O)cc1)C(=O)O [ENKEPHALIN]
Relative potency (Cavia porcellus): 1
Relative potency (Mus musculus): 1
